PDI turbidity: blocks human protein disulfide isomerase activity; P07237; PDI insulin aggregation turbidity, A650, 90 min; inhibition, % at 10 µM; 350,000 compounds, 0.052% hits; AID 588391;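 active means mean inhibition across replicates of 30% or more, whatever share of single replicates reach that level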
INS-1E GSIS act: primary screen for activators of insulin secretion dependent on glucose, INS-1E cells, GLuc reporter luminescence; activation, % at 16.6 µM; 370,000 compounds, 0.61% hits; AID 743287; INS-1E GLuc reporter insulin secretion, 2-3 h;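 active means lowest replicate activation of at least 40%, so every replicate reaches that level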;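 further: 0% = median of neutral control wells and 100% = median of IBMX positive control wells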
Yeast UUG start: alters start codon recognition fidelity in yeast. S. cerevisiae UUG-firefly luciferase reporter, luminescence/redox ratio. AID 602363. activity score, % at 18.7 µM. hit rate 0.13% among 350,000;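 active = replicate mean at a twofold rise or more, about +100% in these data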;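 note: firefly luciferase made from a UUG start codon reports start codon fidelity; reporter light over untreated wells divided by growth signal over untreated wells; some hits fall short of that in this replicate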
ERp5 inh: blocks human ERp5 reductase activity on insulin. inhibition, % at 9.99 µM. AID 651711. 350,000 compounds, 0.05% hits. ERp5 insulin aggregation, absorbance 650 nm, 90 min. Q15084;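 active means mean replicate inhibition above about 25%, with every replicate also reaching it, limit read from the data, passing the limit was not always enough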
NR1D1 modulator: Rev-erb alpha (human) modulation; AID 1259318; 370,000 compounds, 0.79% hits; P20393; Rev-erbα–FITC-DNA binding, fluorescence polarization, 90 min; activity, % at 10 µM;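 active means activity above about 14%, limit read from the data; passing the limit was not always enough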;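 further: 0% = DMSO wells with 35 nM protein and 100% = DMSO wells with 750 nM protein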
SMARCA2 act: activators of SMARCA2 function; 370,000 compounds, 1% hits; activation, % at 9.1 µM; MG213 cells, MMTV-luciferase reporter, dexamethasone, overnight; in the data active means activation above about 7.8%;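 further: 0% = vehicle wells and 100% = reference activator wells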
SMARCA2 act conf: confirmation of SMARCA2 (BRM) function activators | shares compounds with SMARCA2 act | MG213 cells, MMTV-luciferase with dexamethasone, luminescence, overnight; MG213 cells expressing E1A, Rb sequestered; DMSO wells 0%, reference activator 100% | activation, % at 9.1 µM | 3,500 compounds, 30% hits;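 active means activation above its plate's cutoff, the mean activation of tested wells plus 3 SD, cut at about 7.9% in these data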
VP16 Luc act: counter-screen for SMARCA2 activators: GAL4-VP16 luciferase reporter activation; shares compounds with SMARCA2 act; HEK293 GAL4-VP16 pG5luc reporter, luciferase luminescence; scaled: DMSO wells 0%, SAHA wells 100%; activation, % at 9.1 µM; 3,500 compounds, 41% hits; AID 686939;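 active means activation above the solvent-only control well mean plus 3 SD, averaged across control plates, cut at about 5.2% in these data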
Numbers without * were called inactive; x = no result given. This is a sample that favours compounds with a hit; in the whole collection about 2.1% have one here.

Key to letters: A = PDI turbidity; B = INS-1E GSIS act; C = Yeast UUG start; D = ERp5 inh; E = NR1D1 modulator; F = SMARCA2 act; G = SMARCA2 act conf; H = VP16 Luc act
C[C@H](CO)N1C[C@H](C)[C@H](CN(C)CC2CC2)Oc2ccc(NC(=O)c3ccncc3)cc2CC1=O
  A: x; B: 9; C: -9; D: 0; E: x; F: x; G: x; H: x

CCc1ccc(CN(C(=O)c2cc3ccccc3oc2=O)C2CCS(=O)(=O)C2)cc1 (stereo not drawn)
  A: 3; B: x; C: -15; D: x; E: 2; F: 3; G: x; H: x

Cc1ccc(CN(C(=O)c2cc3ccccc3oc2=O)C2CCS(=O)(=O)C2)cc1 (stereo not drawn)
  A: 1; B: 25; C: -7; D: x; E: 2; F: 8.7*; G: 4; H: 4

C[C@H](CO)N1C[C@H](C)[C@@H](CN(C)C(=O)c2ccccc2)Oc2cc(C3=CCCCC3)ccc2S1(=O)=O
  A: x; B: -8; C: 21; D: -2; E: x; F: x; G: x; H: x

Cc1ccc(CNC(=O)C2=NNC(=O)CC2)cc1
  A: -1; B: -13; C: -11; D: x; E: 0; F: 12*; G: 4; H: 7.9*

Cc1ccc(C)c(NC(=O)CN(C)C(=O)C2=NNC(=O)CC2)c1
  A: 0; B: -4; C: x; D: 0; E: 0; F: 0; G: x; H: x

COc1ccc(/C=N/N=C2/NC(=O)C(c3ccccc3)(c3ccccc3)S2)cc1
  A: -8; B: -2; C: -8; D: -50; E: 1; F: 8.3*; G: -1; H: 0

Clc1ccccc1OCc1nc(-c2ccccn2)no1
  A: 22; B: x; C: -23; D: x; E: 0; F: 12*; G: 15*; H: 8.7*

Clc1ccc(OCc2nc(-c3ccccn3)no2)c(Br)c1
  A: -3; B: x; C: -27; D: 0; E: -5; F: 6; G: x; H: x

Cc1ccc(/C=C/C(=O)NC2CCCCCCC2)o1
  A: 5; B: 58*; C: x; D: x; E: -3; F: 8.0*; G: 20*; H: 4

Cc1ccsc1C(=O)Nc1nccs1
  A: -1; B: 25; C: -27; D: 1; E: -1; F: 9.3*; G: 3; H: 3

Cc1csc(NC(=O)c2sccc2C)n1
  A: 3; B: 20; C: -15; D: -11; E: 1; F: 4; G: x; H: x

Cc1ccc(/C=N/NC(=O)NC2CCCCC2)o1
  A: 2; B: 1; C: x; D: -2; E: -8; F: -2; G: x; H: x

Cc1ccc(/C=C/C(=O)Nc2nccs2)o1
  A: 7; B: -6; C: -19; D: -1; E: 1; F: 11*; G: 8.4*; H: 10*

C[C@H](CO)N1C[C@H](C)[C@H](CN(C)Cc2ccncc2)Oc2ccc(NC(=O)NC3CCCCC3)cc2CC1=O
  A: x; B: 1; C: -8; D: -1; E: x; F: x; G: x; H: x

COc1ccc(N=Cc2nc(-c3ccco3)oc2O)cc1
  A: 0; B: x; C: -23; D: x; E: -1; F: 8.8*; G: 9.9*; H: 4

CCNC(=O)/C(C#N)=C/c1c(N2CCCCCC2)nc2c(C)cccn2c1=O
  A: 5; B: x; C: -10; D: 2; E: -2; F: -2; G: x; H: x

Cc1cccn2c(=O)c(/C=C(\C#N)C(=O)NCc3ccco3)c(N3CCOCC3)nc12
  A: -14; B: -7; C: -12; D: 3; E: -30; F: 11*; G: 1; H: 1

CCC(=O)N1[C@H](CO)[C@@H](c2ccccc2)C12CN(C(=O)Nc1cccc(OC)c1)C2
  A: x; B: -14; C: x; D: 3; E: x; F: x; G: x; H: x

C[C@H](CO)N1C[C@H](C)[C@H](CN(C)C(=O)Nc2ccc(F)cc2)Oc2ccc(NS(=O)(=O)c3ccccc3)cc2CC1=O
  A: x; B: -17; C: 6; D: 5; E: x; F: x; G: x; H: x

CC(=O)Nc1ccc(C(=O)OCCC(C)C)cc1
  A: -3; B: x; C: 5; D: x; E: 2; F: 8.9*; G: 2; H: 3

CCCOC(=O)c1ccc(NC(=O)COC)cc1
  A: -4; B: 6; C: 0; D: x; E: 3; F: 4; G: x; H: x

N#Cc1cccnc1N1CCN(C(=O)c2cccc3c2C(=O)c2ccc(Cl)cc2S3(=O)=O)CC1
  A: -8; B: -9; C: -19; D: 2; E: 7; F: 14*; G: 14*; H: 3

c1ccc(N/N=C(\Cc2nc3ccccc3[nH]2)c2ccccc2)cc1
  A: 1; B: -7; C: -20; D: 2; E: 1; F: 2; G: x; H: x

N/N=C(/Cc1nc2ccccc2[nH]1)c1ccc([N+](=O)[O-])cc1
  A: 3; B: -1; C: x; D: 4; E: -1; F: 8.2*; G: 4; H: 5.9*

COc1ccnc(Oc2ccc(C)cc2)c1C#N
  A: 4; B: x; C: 12; D: x; E: 2; F: 0; G: x; H: x

COc1ccnc(Oc2ccc3ccccc3c2)c1C#N
  A: -2; B: 10; C: x; D: -2; E: 0; F: 14*; G: 6; H: 7.9*

CCN(CC)c1ccc(NC(=O)c2cccc(C)c2OC)c(C)c1
  A: -4; B: -9; C: -13; D: x; E: 0; F: 8.2*; G: 14*; H: 4

Cc1ccsc1/C=C1/SC(N2CC(C)OC(C)C2)=NC1=O (stereo not drawn)
  A: -1; B: 7; C: x; D: x; E: -1; F: 11*; G: 0; H: 1

Cc1ccsc1/C=C1\SC(N)=NC1=O
  A: 4; B: x; C: x; D: x; E: 1; F: 3; G: x; H: x

Reformatted bar-delimited: entries from further up.
structure | PDI turbidity | INS-1E GSIS act | Yeast UUG start | ERp5 inh | NR1D1 modulator | SMARCA2 act | SMARCA2 act conf | VP16 Luc act
COc1ccnc(Oc2ccc(C)cc2)c1C#N | 4 | x | 12 | x | 2 | 0 | x | x
COc1ccnc(Oc2ccc3ccccc3c2)c1C#N | -2 | 10 | x | -2 | 0 | 14* | 6 | 7.9*
CCN(CC)c1ccc(NC(=O)c2cccc(C)c2OC)c(C)c1 | -4 | -9 | -13 | x | 0 | 8.2* | 14* | 4

Next section.
Key to letters: A = PDI turbidity; B = INS-1E GSIS act; C = Yeast UUG start; D = ERp5 inh; E = NR1D1 modulator; F = SMARCA2 act; G = SMARCA2 act conf; H = VP16 Luc act
COc1ccc(COC(=O)c2nc3nc(C)cc(C)n3n2)cc1F
  A: 5; B: x; C: -25; D: x; E: -1; F: 8.2*; G: -2; H: 0

CO[C@@H](CN(C)Cc1cc(F)ccc1F)[C@@H](C)CN(C(=O)Nc1ccc(F)cc1)[C@H](C)CO
  A: x; B: -5; C: x; D: -2; E: x; F: x; G: x; H: x

CCc1nc2ccc(C(=O)Nc3ccc(NC(C)=O)cc3)cn2c1N(CCC(C)C)CCN(C)C
  A: 11; B: 12; C: -23; D: 3; E: -4; F: 8.4*; G: 1; H: 0

C[C@@H]1CN([C@H](C)CO)C(=O)c2cc(NC(=O)Cc3ccccc3)ccc2O[C@@H](C)CCCCO[C@@H]1CN(C)Cc1ccc2c(c1)OCO2
  A: x; B: -31; C: 33; D: x; E: x; F: x; G: x; H: x

Cc1ccc(C)c(NC(=S)c2ccc3ccccc3n2)c1
  A: 0; B: -5; C: -23; D: -6; E: 4; F: 8.5*; G: 7; H: 10*

CC(=O)N1CCCCN2[C@H](CO)[C@@H](c3ccc(-c4ccncc4)cc3)[C@@H]2C1
  A: x; B: 6; C: -11; D: -1; E: x; F: x; G: x; H: x

CC(C)c1ccc(CN2CCC2(C)C(=O)Nc2cnc3ccccc3c2)cc1 (stereo not drawn)
  A: -5; B: -13; C: -2; D: -5; E: 5; F: -7; G: x; H: x

CC1(C(=O)Nc2cnc3ccccc3c2)CCN1Cc1ccc2ccccc2c1 (stereo not drawn)
  A: 1; B: 39; C: -10; D: -3; E: -3; F: 12*; G: -2; H: 1

C[C@H](CO)N1C[C@H](C)[C@H](CN(C)S(=O)(=O)c2ccc(F)cc2)Oc2ccc(N(C)C)cc2CC1=O
  A: x; B: 4; C: 5; D: 1; E: x; F: x; G: x; H: x

CCS(=O)(=O)N1CCc2nc(-c3ccccc3)sc2C1
  A: 4; B: -6; C: -18; D: 3; E: 1; F: 8.1*; G: 8; H: 11*

CN(C)c1ccc(N=Nc2cccc3ccoc23)cc1
  A: 2; B: -8; C: -26; D: 2; E: 8; F: 9.8*; G: 8; H: 11*

Cc1cc(C)c(C#N)c(SCc2cc3c(cc2Cl)OCO3)n1
  A: 5; B: x; C: x; D: 0; E: 5; F: 13*; G: -2; H: 0

Cc1cc(C)c(C#N)c(SCc2ccccc2C)n1
  A: -3; B: 2; C: x; D: x; E: 4; F: -2; G: x; H: x

C/C(Nc1cccc(F)c1)=C(/C#N)C(N)=O
  A: -3; B: -1; C: -20; D: -2; E: -1; F: 8.3*; G: -3; H: 0
